From BindingDB's records for patent US12180207 (Array Biopharma, 2024)

By UniProt entry, the sequences of proteins in these tests, tags left out.
UniProt P22607, whole entry: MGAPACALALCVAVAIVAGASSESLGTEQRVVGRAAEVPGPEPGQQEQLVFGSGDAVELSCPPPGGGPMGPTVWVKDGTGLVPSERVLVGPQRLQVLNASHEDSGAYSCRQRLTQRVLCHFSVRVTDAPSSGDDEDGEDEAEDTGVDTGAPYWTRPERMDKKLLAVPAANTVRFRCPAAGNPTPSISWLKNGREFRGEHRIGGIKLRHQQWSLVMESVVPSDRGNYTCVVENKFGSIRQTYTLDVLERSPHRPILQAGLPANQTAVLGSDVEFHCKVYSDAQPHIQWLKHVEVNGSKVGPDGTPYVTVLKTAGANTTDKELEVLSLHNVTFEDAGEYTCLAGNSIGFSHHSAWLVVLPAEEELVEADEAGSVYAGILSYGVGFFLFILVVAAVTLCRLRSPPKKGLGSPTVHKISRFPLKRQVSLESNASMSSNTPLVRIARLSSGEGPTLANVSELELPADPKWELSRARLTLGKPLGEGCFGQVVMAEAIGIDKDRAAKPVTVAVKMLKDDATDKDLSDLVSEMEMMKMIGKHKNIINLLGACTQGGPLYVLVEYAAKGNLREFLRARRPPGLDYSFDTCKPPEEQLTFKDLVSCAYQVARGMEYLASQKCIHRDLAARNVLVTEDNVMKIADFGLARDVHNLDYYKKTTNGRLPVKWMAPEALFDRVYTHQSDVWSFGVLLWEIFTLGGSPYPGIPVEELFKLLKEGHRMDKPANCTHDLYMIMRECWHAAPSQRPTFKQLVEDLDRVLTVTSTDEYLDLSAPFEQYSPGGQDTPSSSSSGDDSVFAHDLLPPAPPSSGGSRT

What was measured:
[1] = target: T1, Fibroblast growth factor receptor 3 (Homo sapiens, UniProt P22607); experiment: Enzyme Assay
Description: he potency of compounds inhibiting human isoforms of FGFR kinase was determined using Life Technologies' Homogeneous Time Resolved Fluorescence (HTRF)-based binding assay technology. […] After a 60 minute incubation at 22° C., the extent of tracer displacement was determined using a PerkinElmer EnVision multimode plate reader via HTRF dual wavelength detection, and the percent of control (POC) was calculated using a ratiometric emission factor. One hundred POC was determined using no test compound, and 0 POC was determined in the presence of 1 μM of an appropriate control inhibitor.

[2] = target: T1, Fibroblast growth factor receptor 3; experiment: FGFR3 Enzyme Activity Assay
Description: FGFR3 kinase activity was measured by the Invitrogen LanthaScreen™ Assay technology which directly measures the amount of substrate phosphorylation by TR-FRET using a fluorescently-labeled peptide and Europium-labeled antibody. Briefly, 750 μM N-terminal GST-HIS6 fusion protein with a 3C cleavage site recombinant human FGFR3 (amino acids R397-T806) (ProQinase Cat. No. 1068-0000-1) was incubated with 100 nM Alexa Fluor 647-Poly-GT Peptide Substrate (Life Technologies Cat. No. PV5836) and 25 μM ATP along with test compound in a buffer consisting of 250 mM HEPES, 25 mM MgCl2, 0.05% TritonX-100, pH 7.5, and 2% DMSO. Compounds were typically prepared in a threefold serial dilution in DMSO and added to the assay to give the appropriate final concentration. After a 10 minute incubation at 22° C., an equal volume of 2 nM LanthaScreen Eu-PY20 Antibody (Life Technologies Cat. No. PV5691) and 10 mM EDTA were added to quench the kinase reaction and start the detection reaction. After an additional 60 minute incubation at 22° C., the reaction was measured using a PerkinElmer EnVision multimode plate reader via TR-FRET dual wavelength detection, and the percent of control (POC) calculated using a ratiometric emission factor. 100 POC was determined using no test compounds and 0 POC was determined using no enzyme. […]

SMILES	IC50 [1] [nM]	IC50 [2] [nM]
C=CS(=O)(=O)N[C@H]1C[C@@H](C(=O)N2CCC(n3cc(-c4cc(OC)c5c(C#N)cnn5c4)cn3)CC2)C1 [US12180207, Example 193]	2	2
C=CS(=O)(=O)N[C@H]1C[C@H](C(=O)N2CCC(n3cc(-c4cc(OC)c5c(C#N)cnn5c4)cn3)CC2)C1 [US12180207, Example 194]		7
